In patent publication US9346820B2, “HIV-1 protease inhibitors having gem-di-fluoro bicyclic P2-ligands” (priority 2013, dated 2016):

Test system: HIV-1LAI
Assay: Drug susceptibility MTT assay, MT-2 cells exposed to HIV-1LAI
Details: ratio of CC50 to EC50 against HIV-1LAI

SMILES: CC(C)CN(C[C@@H](O)[C@H](Cc1ccccc1)NC(=O)O[C@H]1CCOC1)S(=O)(=O)c1ccc(N)cc1 [APV, Amprenavir]
- Selectivity Index: >3,333
